# Assay results taken from US20110189675A1, “Method For Administering Anticoagulation Therapy” (Marshfield Clinic, priority 2007, published 2011).
# Assay: Stable therapeutic warfarin dose by CYP2C9, VKORC1 and rs2108622 (CYP4F2) genotype, 424 subjects
# Assay type: in vivo, human
# Text: The initial cohort was recruited at Marshfield Clinic, a multi-specialty group practice in Wisconsin as described.^6, 16 Patients were excluded from the study if they were known to have cancer, renal or hepatic insufficiency, or congestive heart failure.
# The targeted human DMET 1.0 assay (Affymetrix, Inc, Santa Clara, Calif.) utilizes molecular inversion probes and GeneChip universal tag arrays to target 1228 single nucleotide polymorphisms (SNP) within 170 genes for metabolic enzymes and transport and regulatory proteins (Table 2).
# The laboratory protocol followed the standard process described in the Targeted Genotyping System User Guide^25 except for a preliminary polymerase chain reaction (PCR)-amplification step aimed at resolving genotypes from 29 SNPs in regions containing pseudogenes and close homologues. GeneChip Targeted Genotyping Analysis software was used to make genotype calls and generate QC metrics including call rates, average signal, cluster quality, Hardy-Weinberg equilibrium, and reproducibility. […] Genotypes represented by the remaining 1217 SNP assays were called according to either predefined boundaries (derived from historical training sets) or dynamic clustering using the current data set. […] The remaining polymorphisms target rare mutations or SNPs prevalent in other racial groups.
# VKORC1 genotypes were determined on 436 Marshfield Clinic samples as described^6 and on the remaining 61 samples using Invader® chemistry in a laboratory test developed with analyte specific reagents manufactured by Third Wave Technologies (TWT, Madison, Wis.). The laboratory developed assay used analyte-specific reagents that detect CYP2C9*2, CYP2C9*3, and VKORC1 (position −1639).^26
smiles,measurement,setting,value
CC(=O)CC(c1ccccc1)c1c(O)c2ccccc2oc1=O (centres unmarked) [warfarin],Geometric Mean warfarin dose,"CYP2C9 *1/*2, VKORC1 CG, rs2108622 CC, N=22",23.2 mg/week
same,Geometric Mean warfarin dose,"CYP2C9 *1/*2, VKORC1 CG, rs2108622 CT, N=21",26.3 mg/week
same,Geometric Mean warfarin dose,"CYP2C9 *1/*3, VKORC1 CC, rs2108622 CC, N=4",13.0 mg/week
same,Geometric Mean warfarin dose,"CYP2C9 *1/*3, VKORC1 CG, rs2108622 CT, N=13",24.6 mg/week
same,Geometric Mean warfarin dose,"CYP2C9 *1/*3, VKORC1 CG, rs2108622 TT, N=2",24.7 mg/week
same,Geometric Mean warfarin dose,"CYP2C9 *1/*3, VKORC1 GG, rs2108622 CT, N=7",23.0 mg/week
same,Geometric Mean warfarin dose,"CYP2C9 *2/*3, VKORC1 CC, rs2108622 CT, N=1",12.5 mg/week
same,Geometric Mean warfarin dose,"CYP2C9 *2/*3, VKORC1 CG, rs2108622 CC, N=1",12.0 mg/week
